Only a part is listed here, and it is no random draw. Calls of active or inactive are those of the source. No stated cut-off is given here; in the data, active means activation mostly above about 9.5% (no sharp cut-off); inactive means mostly below about 7.6%.
Target: 5-hydroxytryptamine receptor 5A (Homo sapiens) (UniProt P47898)
Assay: activation of human 5-HT5A receptor – cell-based, luminescence, full-deck HTS, counter-screen for OPRM1-OPRD1 heterodimer agonist project, primary screen (AID 504692);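 further: 0% = cells with vehicle only and 100% = reference agonist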
Conditions: HTR5A agonist assay, at 9.3 µM, stronger effect = higher value

By UniProt entry, the sequences of proteins in these tests, tags left out.
UniProt P47898, whole entry, looked up: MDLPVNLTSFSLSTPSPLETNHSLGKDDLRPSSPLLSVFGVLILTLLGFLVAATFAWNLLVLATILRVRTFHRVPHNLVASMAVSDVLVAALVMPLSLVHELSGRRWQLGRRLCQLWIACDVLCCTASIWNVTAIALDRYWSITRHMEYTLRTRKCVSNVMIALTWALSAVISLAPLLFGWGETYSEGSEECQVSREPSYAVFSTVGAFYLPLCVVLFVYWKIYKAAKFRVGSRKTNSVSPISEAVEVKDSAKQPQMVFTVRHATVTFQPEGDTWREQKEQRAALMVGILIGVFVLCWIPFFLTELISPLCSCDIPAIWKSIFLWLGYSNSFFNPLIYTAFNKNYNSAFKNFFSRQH

Row | SMILES | activation
1 | O=P1(Nc2nc3ccc(Cl)cc3s2)COc2ccccc2O1 (stereo not drawn) | inactive: 3.17%
2 | CCOc1ccc(C2=NCC(CBr)S2)cc1 (stereo not drawn) | inactive: 2.93%
3 | COCCNC(=O)Cn1cnc2c1c(=O)n(C)c(=O)n2C | inactive: -3.7%
4 | COCCN1CCn2c(nc3cc(NC(C)=O)ccc32)C1 | inactive: -2.42%
5 | CCc1cc(O)c([N+](=O)[O-])c(C)c1[N+](=O)[O-] | inactive: -0.93%
6 | CCOC(=O)c1ccc(NC(=O)Cn2c(-c3nonc3N)nc3ccccc32)cc1 | inactive: 3.72%
7 | CSc1nc2ccccc2n1CC(=O)Nc1c(C)n(C)n(-c2ccccc2)c1=O | inactive: -4.73%
8 | O=C(Cn1c(-c2cncs2)nc2ccccc21)NCCc1ccccc1 | inactive: 4.69%
9 | COc1cccc(C(=O)CSc2nc3ccccc3n2CC(=O)N2CCOCC2)c1 | inactive: 4.17%
10 | CC(/C=C/c1ccccc1)=N/NC(=O)CCC(=O)Nc1ccccc1C | inactive: 10.5%
11 | Cc1ccc2c(c1)C1C[N+](C)(CC(=O)c3ccccc3)CCC1N2C(=O)c1ccccc1Cl (stereo not drawn) | inactive: 6.13%
12 | O=C(Cn1c(CO)nc2ccccc21)Nc1ccccc1Cl | inactive: 5.46%
13 | COc1ccc(Cl)cc1NC(=O)CN(C)C(=O)Cn1cnc2c1c(=O)n(C)c(=O)n2C | inactive: 3.78%
14 | CC(C)(C)C(=O)NC(Sc1ccccc1)C(Cl)(Cl)Cl (stereo not drawn) | inactive: -2.03%
15 | c1ccc(CN2CCC(Nc3nc(-c4cccnc4)nc4ccccc34)CC2)cc1 | inactive: 0.13%
16 | COC(=O)C1=C(Cn2cnc3ccccc32)NC(=O)NC1c1cc(C)ccc1C (stereo not drawn) | inactive: 7.51%
17 | COc1ccc(/C=N/NC(=O)Cn2cnc3c2c(=O)n(C)c(=O)n3C)cc1 | inactive: 1.59%
18 | C[C@H](NC(=O)N1CCn2c1nc1ccccc12)C(=O)N1CCCCC1 | inactive: -1.34%
19 | CCOC(=O)CC[C@H](NC(=O)Cn1cnc2c(SC)nc(N)nc21)C(=O)OCC | inactive: 0.46%
20 | CSc1nc2ccccc2n1CC(=O)Nc1ccc(C)c(C)c1 | inactive: 1.04%

Row | SMILES | activation
21 | CCc1cccc(CC)c1N(COC)C(=O)Cn1c(CO)nc2ccccc21 | inactive: 2.24%
22 | CC(/C=N/NC(=O)Cn1cnc2c1c(=O)n(C)c(=O)n2C)=C\c1ccco1 | inactive: 0.67%
23 | COC(=O)c1cc2c(s1)N=C(c1ccccc1)N(C)P2(=O)N1CCOCC1 (stereo not drawn) | inactive: 0.29%
24 | Cn1c(=O)c2c(ncn2CC(=O)NC2CCCCC2)n(C)c1=O | inactive: 5.17%
25 | Cc1sc2ncnc(NC3CCN(Cc4ccccc4)CC3)c2c1C | inactive: 1.67%
26 | CC(C)NC(=O)Cn1cnc2c1c(=O)n(C)c(=O)n2C | inactive: 0.23%
27 | CC(=O)NC(SC(=S)N(CC(C)C)CC(C)C)C(Cl)(Cl)Cl (stereo not drawn) | inactive: 0.2%
28 | Cc1ccc(OP(=O)(Nc2ccccn2)Oc2ccc(C)cc2)cc1 | inactive: 4.06%
29 | CC(C(=O)Nc1ccc2c(c1)OCO2)n1cnc2c1c(=O)n(C)c(=O)n2C (stereo not drawn) | inactive: -4.48%
30 | CCc1cccc(CC)c1N(COC)C(=O)Cn1c(C(C)O)nc2ccccc21 (stereo not drawn) | inactive: -3.53%
31 | Cn1c(=O)c2c(ncn2CC(=O)Nc2ccccc2N2CCOCC2)n(C)c1=O | inactive: 3.51%
32 | FC(F)(F)c1nc2ccccc2n1CCNc1nc(CN2CCCCC2)cs1 | inactive: 1.2%
33 | CSc1nc(N)nc2c1ncn2CC(=O)NCC(c1ccccc1)c1ccccc1 | inactive: 1.89%
34 | CC(C)N(C(=O)Cn1c(SCC(=O)Nc2nccs2)nc2ccccc21)C(C)C | inactive: 9.83%
35 | O=C1CC(N2CCC(n3c(=O)[nH]c4ccccc43)CC2)C(=O)N1Cc1ccccc1 (stereo not drawn) | inactive: 5.32%
36 | Cc1ccc2c(c1)C1CN(C)CCC1N2C(=O)c1cccc(S(=O)(=O)N(C)C)c1 (stereo not drawn) | inactive: -2.18%
37 | O=C(CCCCCNC(=O)N1CCn2c1nc1ccccc12)NCc1ccc(F)cc1 | inactive: 3.46%
38 | CN1CCC(N(C)c2ccc(C(N)=O)cc2[N+](=O)[O-])CC1 | inactive: 3.41%
39 | CC(C)[C@H](NC(=O)N1CCn2c1nc1ccccc12)C(=O)NCCc1ccccc1 | inactive: 1.29%
40 | Cc1ccc2c(c1)C1CN(C)CCC1N2S(=O)(=O)c1ccccc1 (stereo not drawn) | inactive: 1.43%

Row | SMILES | activation
41 | CC(O)CNc1nc2ccccc2n1CC(=O)NC12CC3CC(CC(C3)C1)C2 (stereo not drawn) | inactive: 1.88%
42 | O=C(OC1CN2CCC1CC2)c1ccccc1 (stereo not drawn) | inactive: 4.11%
43 | CC1CN(CCn2cnc3c(N)ncnc32)CC(C)O1 (stereo not drawn) | inactive: 1.21%
44 | CCC(=O)N1C2C3N(C(=O)CC)C1C1N(C(=O)CC)C(C(N1C(=O)CC)N3C(=O)CC)N2C(=O)CC | inactive: -2.08%
45 | O=C(Cn1c(=O)n(CC(=O)NCc2ccccc2)c2ccccc21)NCc1ccccc1 | inactive: 5.69%
46 | Clc1ccc(N2CCN(Cc3c[nH]c4ncccc34)CC2)cc1 | inactive: 4.75%
47 | Cc1ccc2c(c1)C1CN(C)CCC1N2C(=S)NC(=O)c1ccc(Cl)cc1Cl (stereo not drawn) | inactive: 0.88%
48 | Cc1ccc(C)c(Cn2c(=O)c3c(nc4n3CCN4Cc3ccco3)n(C)c2=O)c1 | inactive: -4.14%
49 | CCCC(=O)Nc1ccc2c(c1)nc1n2CCN(CCOC)C1 | inactive: -1.66%
50 | CC(/C=N\NC(=O)Cn1c(C)nc2ccccc21)=C\c1ccccc1 | inactive: 2.48%
51 | COCCNC(=O)Cn1c(=O)n(C)c2ccccc21 | inactive: 1.37%
52 | Cn1c(=O)c2c(ncn2CC(=O)N2CCN(c3ccccc3)CC2)n(C)c1=O | inactive: -1.76%
53 | COCCN1CCn2c(nc3cc(Nc4nnc(C)c5ccccc45)ccc32)C1 | inactive: 0.07%
54 | C[C@H](O)[C@@H]1C(=O)N2CCc3ccc(-c4cccc(F)c4)cc3[C@@H]2C[C@@H]1N(C)C(=O)Nc1ccccc1 | inactive: 0.4%
55 | CC1CCCN(C(=O)Cn2cnc3c2c(=O)n(C)c(=O)n3C)C1 (stereo not drawn) | inactive: 1.39%
56 | CC(NC(=O)COC(=O)C(O)(c1ccccc1)c1ccccc1)c1ccccc1 (stereo not drawn) | inactive: -4.63%
57 | CCc1cccc(C)c1N(C(=O)Cn1c(CO)nc2ccccc21)C(C)COC (stereo not drawn) | inactive: -0.56%
58 | Cc1ccc(CNC(=O)Cn2cnc3c(NC(=O)OCc4ccccc4)ncnc32)o1 | inactive: -0.37%

Source: PubChem BioAssay AID504692 (The Scripps Research Institute Molecular Screening Center, 2011)
